Amino acid sequences for entries named in this document (tags omitted).
UniProt P14416, whole entry: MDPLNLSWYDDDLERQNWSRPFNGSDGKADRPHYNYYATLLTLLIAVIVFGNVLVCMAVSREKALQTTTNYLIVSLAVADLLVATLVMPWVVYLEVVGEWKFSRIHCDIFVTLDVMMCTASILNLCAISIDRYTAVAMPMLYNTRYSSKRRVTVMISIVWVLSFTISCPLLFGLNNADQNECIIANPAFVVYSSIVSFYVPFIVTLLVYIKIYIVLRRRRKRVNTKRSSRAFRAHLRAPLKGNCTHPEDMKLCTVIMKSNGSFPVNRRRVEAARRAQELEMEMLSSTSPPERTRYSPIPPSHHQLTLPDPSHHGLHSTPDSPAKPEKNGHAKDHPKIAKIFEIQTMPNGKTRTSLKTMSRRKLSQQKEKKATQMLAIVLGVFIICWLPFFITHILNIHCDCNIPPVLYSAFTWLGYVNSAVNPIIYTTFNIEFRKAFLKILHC

In patent publication US20080181848A1 (priority 2004, published 2008):

Target: D2^high receptors in caudate nucleus (Homo sapiens, UniProt P14416)
Settings: PET

## [^11C]-(+)-4-propyl-9-hydroxy-2,3,4a,5,6,10b-hexahydro-4H-naphth[1,2b][1,4]-oxazine HCl [[^11C](+)PHNO]
Bolus plus infusion i.v.
  time of peak emission in the caudate nucleus after intravenous injection: 10 min
i.v., of the order of
  peak emission in the caudate nucleus: ~0.2 % of the injected dose per kg
